Measured values from paper PMC5469451, “Identification of compounds that suppress Toxoplasma gondii tachyzoites and bradyzoites” (PLoS ONE, 2017).

What was measured:
[1] = test system: RH-2F tachyzoites (type I strain) in HFF cells; test: Confirmatory screening: RH-2F β-galactosidase growth assay in HFF cells; assay type: cell-based; conditions: Toxoplasma gondii, 48 h, read-out: Parasite inhibition (%)
Procedure: In the confirmatory screening, we utilize an RH strain β-galactosidase reporter parasite termed RH-2F (a type I strain). Briefly, RH-2F parasites were purified from freshly lysed infected host cells and used to infect confluent HFF cells cultured in 96-well plates. Five hundred parasites were added to each well, along with each test compound and 50 μL of culture medium. Plates were then incubated for 10 min at room temperature followed by an incubation at 37°C for 48 h in a CO2 incubator.
To measure the effects of tanshinone IIA and hydroxyzine on intracellular parasite growth, parasites were allowed to invade for 2 h, uninvaded parasites were washed away, and medium with compounds was added. After 48 h, the plates were frozen at -80°C. Plates were then thawed just prior to the measurement of beta-galactosidase activity. Beta-Glo (Promega) was used to measure β-galactosidase activity following the manufacturer’s instructions.

[2] = test system: PLK/DLUC_1C9 tachyzoites in Vero cells; test: Primary screening: T. gondii growth assay, Renilla luciferase; assay type: cell-based; conditions: Toxoplasma gondii, 48 h, read-out: Parasite Inhibition (%)
Procedure: In the primary screening, purified PLK/DLULC_1C9 tachyzoites were incubated with Vero cells at a multiplicity of infection (MOI) of 0.5. After a 2-h incubation, the infected host cells were trypsinized to obtain a cell suspension and then these suspended infected cells were inoculated into 96-well optical bottom plates containing the compound library. Each well was inoculated with 2500 cells in 25 μL of culture medium. […] Following cell inoculation, each well therefore contained 0.5% DMSO and 10 μM compound. After 48 h of culture, Renilla luciferase activity was measured by using Renilla-Glo (Promega, WI, USA) following the manufacturer’s instructions. […] The Z’-value for each plate was calculated from the Renilla luciferase activity in the negative and positive control wells.

Compound: OCCN1CCN(CCCN2c3ccccc3Sc3ccc(C(F)(F)F)cc32)CC1 [FLUPHENAZINE]
- inhibition at 2.5 µM [1]: 19%
- inhibition at 25 µM [1]: 111%
- inhibition at 10 µM [2]: 103%
